Assays:
[1] = system: breast cancer patients who overexpress the HER2 growth factor receptor; settings: cited from earlier work
[2] = system: cancer cell lines that expressed high levels of MUC1*; experiment: HERCEPTIN effect on cell lines with intrinsically high MUC1*; format: cell-based; settings: HERCEPTIN® alone
Source text: We also investigated whether cancer cells that intrinsically expressed high levels of MUC1* were resistant to certain drugs. […] MUC1* may also be disabled by binding agents to its intracellular tail such that interactions with signaling proteins are clocked.

[3] = system: breast cancer cell line ZR-75-30; experiment: ZR-75-30 growth with anti-MUC1* Fab and HERCEPTIN (FIG. 10B); format: cell-based; settings: ZR-75-30, combination of anti-MUC1* Fab and HERCEPTIN®
[4] = system: BTRes1 and BTRes2 (BT474 cell pools that have acquired resistance to HERCEPTIN®); experiment: Growth of HERCEPTIN resistant cell pools versus HERCEPTIN concentration, alone or with MUC1* disabling agents; format: cell-based
Description: Briefly, BT474 cells, and resistant cells (BTRes1 and BTRes2) were plated in 96 well plates at 10,000 cells/well, six wells per condition. […] Three days later, the remaining cells were counted using a hemocytometer.
BT474, BTRes1 and BTRes2 Cells were plated in 96 well plates at 10,000 cells/well, six wells/condition. […] One set of wells was left untreated. Three days later, cells were counted, and Percent Normalized Growth was calculated.
BT474 cells were transfected in triplicate with control siRNA (Santa Cruz Biotechnologies; sc-37007), and BTRes1 cells were transfected in triplicate with control or MUC1-specific siRNA (Santa Cruz Biotechnologies sc-35985). One microliter of 10 μM siRNA was added to 100 ul of OptiMEM medium (Invitrogen 22600134). Six microliters of HiPerfect reagent (Qiagen 301704) were then added to each tube. After vortexing, tubes were incubated at room temperature for 20 minutes. Meanwhile, cells were trypsinized, pelleted and resuspended in fresh RPMI without HERCEPTIN®. 5×10^5 cells in 2.3 ml RPMI were combined with the OptiMEM with siRNA/HiPerfect complexes and added to a well of a 6 well plate. Two days later, cells were re-transfected by the same method, and plated in 96 well plates, at 10,000 cells per well, five wells per condition. […] Three days later, cells were counted, and Percent Normalized Growth was calculated.

trastuzumab [HERCEPTIN®]
patients acquiring resistance ([1]; HER2 metastatic breast cancer patients, within the first year of treatment): 25% | patients responsive to treatment ([1]; of 42,000 HER2 overexpressing breast cancer patients): less than 35% | therapeutic effect of HERCEPTIN® [2]: no therapeutic effect | cell growth [3]: inhibited | effect of HERCEPTIN® on cell growth ([4]; BTRes1 and BTRes2, HERCEPTIN® alone, 0-3 ug/ml): no effect | 50% growth inhibition concentration of HERCEPTIN® ([4]; BTRes1 cells transfected with MUC1-specific siRNA): less than 0.01 ug/ml

— US20090092603A1, “EARLY DIAGNOSIS AND TREATMENT OF DRUG RESISTANCE IN MUC1-POSITIVE CANCER” (priority 2007, published 2009)
